The conditions of this series: human, in vivo.

Marks after values point to notes of the source that are not given here.

buprenorphine: the “AUC (AUCtau, AUC24), dose normalized, Alone” value is listed as 4,610 (46)^d^,^j pg · h/ml/mg; the “AUC (AUCtau, AUC24), dose normalized, Coadministration” value is on record as 6,940 (38)^d^,^j pg · h/ml/mg; the “Cmax, dose normalized, Alone” value is 642 (43)^i pg/ml/mg; the “Cmax, dose normalized, Coadministration” value is listed as 764 (38)^i pg/ml/mg. Further, the “increase in AUC upon coadministration” value is on record as 51% and the “increase in Cmax upon coadministration” value amounted to 19%.

These data come from publication PMC4704150 (Antimicrobial Agents and Chemotherapy, 2015).
